The text below walks through data of patent US20040197335A1, “Non-myeloablative tolerogenic treatment with tyrphostins” (priority 2003, published 2004).

The subject of this assay is Mice with donor skin graft. In words: Skin grafting after tolerogenic treatment (TLI, donor bone marrow cells, tyrphostin, cyclophosphamide). The assay is classed as in vivo. The settings on record: s.c., 300 mg in 30 μl per injection.

As to `COc1ccc(C=C(C#N)C#N)cc1`, the “Survivors after 50 days (%)” value is on record as “(30%)” and the “Survivors after 100 days (%)” value is recorded as “(30%)”. For the same compound, where the note is “survivors/total”, the “Survivors after 50 days” value was 2/6 and the “Survivors after 100 days” value is reported as 2/6.
